Tested on: neurons of the locus coeruleus (LC); mu opioid receptor-coupled K^+ channels
Format: cell-based, rat

Q: For `C=CCN1CC[C@]23c4c5ccc(O)c4O[C@H]2C(=O)CC[C@@]3(O)[C@H]1C5` [naloxone], which “effect on light-evoked outward current” value is on record?
A: blocked

Source: PMC3282187 (Neuron, 2012)
